ChEMBL document CHEMBL4033775, “Natural-Products-Inspired Use of the gem-Dimethyl Group in Medicinal Chemistry” (J Med Chem, 2018)

Amino acid sequences for entries named in this document (tags omitted). A change or cut given only in a name is not applied to a line headed by its entry.
UniProt P22894: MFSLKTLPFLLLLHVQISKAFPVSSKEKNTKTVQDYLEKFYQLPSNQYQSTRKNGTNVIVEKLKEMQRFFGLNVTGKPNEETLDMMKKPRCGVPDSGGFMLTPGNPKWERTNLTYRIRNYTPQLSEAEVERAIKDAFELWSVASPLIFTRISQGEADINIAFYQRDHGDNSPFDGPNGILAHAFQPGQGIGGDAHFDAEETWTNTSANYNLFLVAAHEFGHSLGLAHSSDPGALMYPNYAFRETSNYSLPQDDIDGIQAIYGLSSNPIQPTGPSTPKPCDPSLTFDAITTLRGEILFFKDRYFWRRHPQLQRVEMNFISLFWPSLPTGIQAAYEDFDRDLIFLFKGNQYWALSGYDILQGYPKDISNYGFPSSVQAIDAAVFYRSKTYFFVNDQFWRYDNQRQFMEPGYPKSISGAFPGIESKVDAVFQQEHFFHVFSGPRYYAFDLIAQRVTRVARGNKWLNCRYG

How the values were obtained:
Neutrophil collagenase = Neutrophil collagenase (Homo sapiens, UniProt P22894); experiment: Inhibition of MMP8 (unknown origin) expressed in Escherichia coli BL21(DE3) using Mca-Pro-Leu-Gly-Leu-Dpa-Ala-Arg-NH2 as substrate after 20 to 30 mins by spectrofluorimetric analysis
Prothrombin = Prothrombin (Homo sapiens, UniProt P00734); experiment: Inhibition of human plasma thrombin using chromogenix AB as substrate after 30 secs by UV-spectrophotometry

Structure (SMILES)	IC50 (Neutrophil collagenase) [nM]	Ki (Prothrombin) [nM]
COc1ccc(S(=O)(=O)N2CCSC(C)(C)C2C(=O)NO)cc1 (configuration not stated)	0.7	
CC1CNc2c(cccc2S(=O)(=O)N[C@@H](CCCNC(=N)N)C(=O)N2CC[C@@H](C)C[C@@H]2C(=O)O)C1 (some centres not stated) [ARGATROBAN]		40
